Protein sequences, listed by entry. Tags and fused reporters are not part of them. Residues count along the entry.
UniProt A0A6J1T1Q2, 1-118: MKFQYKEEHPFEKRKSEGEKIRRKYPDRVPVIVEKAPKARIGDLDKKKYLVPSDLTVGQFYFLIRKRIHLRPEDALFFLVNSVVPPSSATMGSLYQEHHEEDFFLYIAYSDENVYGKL

According to patent publication US20240099298A1, “BIOINSECTICIDAL COMPOSITIONS CONTAINING MONOTERPENES AND METHODS OF USE THEREOF” (priority 2017, published 2024):

Target: recombinant gamma-aminobutyric acid receptor-associated protein (rGABARAP) (Frankliniella occidentalis, UniProt A0A6J1T1Q2)
Assay: Microscale thermophoresis (MST) binding to rGABARAP
Conditions: read-out: Kd value, MST

CC(C)=C1CCC(C)CC1=O (racemic)
Kd: 2060 nM
